Data: ChEMBL document CHEMBL4387741, “Optimization of novel reversible Bruton's tyrosine kinase inhibitors identified using Tethering-fragment-based screens” (Bioorg Med Chem, 2019)

Sequences of proteins named here, by UniProt entry; tags and fusion partners are left off. A change or cut given only in a name is not applied to a line headed by its entry.
UniProt Q06187: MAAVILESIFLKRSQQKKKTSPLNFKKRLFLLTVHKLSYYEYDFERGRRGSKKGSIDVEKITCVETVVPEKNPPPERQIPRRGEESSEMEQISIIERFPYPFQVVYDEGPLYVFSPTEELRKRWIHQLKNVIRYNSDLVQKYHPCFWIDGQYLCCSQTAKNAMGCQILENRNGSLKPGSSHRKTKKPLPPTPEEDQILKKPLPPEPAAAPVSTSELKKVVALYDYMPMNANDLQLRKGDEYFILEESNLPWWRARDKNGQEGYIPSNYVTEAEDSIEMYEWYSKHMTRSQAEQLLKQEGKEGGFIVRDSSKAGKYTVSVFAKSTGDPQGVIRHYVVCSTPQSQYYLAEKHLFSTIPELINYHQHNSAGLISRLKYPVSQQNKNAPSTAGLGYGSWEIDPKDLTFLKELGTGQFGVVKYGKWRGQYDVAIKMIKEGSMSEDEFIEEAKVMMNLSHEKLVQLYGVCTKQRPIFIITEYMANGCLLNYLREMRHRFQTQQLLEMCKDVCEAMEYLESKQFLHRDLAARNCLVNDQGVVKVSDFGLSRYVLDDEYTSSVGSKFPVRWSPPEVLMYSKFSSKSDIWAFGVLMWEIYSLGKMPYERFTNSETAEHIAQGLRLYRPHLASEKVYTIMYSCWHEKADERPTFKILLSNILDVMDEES

Target: Tyrosine-protein kinase BTK (Homo sapiens, UniProt Q06187)
Experiment: biochemical

O=C(Nc1cccc(C2CCCN(c3ncnc4[nH]ccc34)C2)c1)Nc1ccccc1Cl (stereo unspecified)
IC50: 0.12 µM
